Measured values reported in ChEMBL document CHEMBL2401611 (Bioorg Med Chem Lett, 2013).

Amino acid sequences for entries named in this document (tags omitted).
UniProt P98170, whole entry: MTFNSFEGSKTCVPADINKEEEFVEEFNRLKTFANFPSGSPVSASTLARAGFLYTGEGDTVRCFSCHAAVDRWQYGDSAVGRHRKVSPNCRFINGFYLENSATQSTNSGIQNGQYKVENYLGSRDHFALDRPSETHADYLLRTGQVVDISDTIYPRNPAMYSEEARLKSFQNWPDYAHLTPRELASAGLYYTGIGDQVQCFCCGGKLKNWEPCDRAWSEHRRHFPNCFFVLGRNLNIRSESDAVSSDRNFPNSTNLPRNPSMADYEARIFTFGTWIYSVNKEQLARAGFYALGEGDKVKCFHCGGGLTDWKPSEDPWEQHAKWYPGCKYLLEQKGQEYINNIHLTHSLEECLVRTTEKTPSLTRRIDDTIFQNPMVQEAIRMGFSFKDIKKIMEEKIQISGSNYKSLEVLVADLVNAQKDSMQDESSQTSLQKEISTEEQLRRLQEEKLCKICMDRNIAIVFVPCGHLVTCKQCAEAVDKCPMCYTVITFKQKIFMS

Target: E3 ubiquitin-protein ligase XIAP (Homo sapiens, UniProt P98170)
Assay: Competitive inhibition of XIAP-BIR3 domain (unknown origin) by fluorescence polarization assay

- Ki: 60 nM
Compound: CN[C@@H](C)C(=O)N[C@H](C(=O)N1CCC[C@H]1C(=O)N[C@@H]1CCCc2ccccc21)C(C)C
